Measured affinities in a library of Ab-95 light chain variants

The measurements come from Engelhart et al. 2022 (doi:10.1038/s41597-022-01779-4) through the FLAb antibody collection.

Antigen: PDVDLGDISGINAS, a 14-residue peptide of the SARS-CoV-2 spike HR2 region.

The variants keep the heavy chain, the linker and the frameworks of Ab-95 (scFv order VH, three GGGGS repeats, VL).
VH: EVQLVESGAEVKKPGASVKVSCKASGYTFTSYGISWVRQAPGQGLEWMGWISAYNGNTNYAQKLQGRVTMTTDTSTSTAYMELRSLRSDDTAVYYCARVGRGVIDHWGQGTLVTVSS
VL: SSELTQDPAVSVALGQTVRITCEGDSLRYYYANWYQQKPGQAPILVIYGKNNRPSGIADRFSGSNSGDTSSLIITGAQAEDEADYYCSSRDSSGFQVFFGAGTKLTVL

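Phage display of a naive human antibody library on the peptide gave the parent. In library AAYL52, one, two or three CDR residues were substituted; doubles and triples were drawn at random. The assay is AlphaSeq: two haploid yeast populations carry antibody and antigen on their surface. Binding brings cells together so that they mate, and sequencing counts the barcode pairs among the diploids. The ratio of observed to expected reads was calibrated, replicate by replicate, on BCL2-family standards whose Kd was known from biolayer interferometry. There are three technical replicates.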

Substitutions are numbered in sequence along the VL above, starting at 1 (not Kabat). The read-out is the apparent dissociation constant on a log10 scale (nM): the lower, the stronger. Replicates are averaged; those with no signal do not enter the mean. Where no diploid with the target was found in any replicate, the entry reads "no signal": below detection, most likely a poor binder, though not proof of it. Parent in this assay: reference entry 2.31, copy in this library 2.25.

changes	mean, log10 nM	detected	control signals
R28L/Y31I/R90T	3.81	1/3	0/9
S26Q/P54T/D91V	4.19	2/3	3/9
G94T/F95G/Q96W	3.11	3/3	4/9
R90S/S92N/F98G	3.27	3/3	5/9
D25F/Y29G/G94P	no signal	0/3	3/9
S89M/G94M/V97K	2.23	2/3	0/9
Y31E/S89T/R90K	3.16	3/3	0/9
P54E/S88W/F98S	2.76	3/3	1/9
R28P/F95K/Q96I	no signal	0/3	0/9
Y30T/R53Y/R90H	2.91	3/3	5/9
E23Y/P54W/Q96A	4.01	3/3	3/9
E23M/S92T	2.87	3/3	3/9
S88I/R90K/F95M	3.67	1/3	3/9
G24Q/S55P/Q96W	no signal	0/3	3/9
E23F/N51T/S92N	3.45	2/3	4/9
G24F/L27W/N52Q	4.29	2/3	3/9
L27R/N51Y/G94W	no signal	0/3	1/9
E23F/S55P/D91Y	3.62	3/3	4/9
Y29R/A32L/S55K	no signal	0/3	4/9
G24Y/S26N/R53Y	3.96	2/3	2/9
N33S/N52M/Q96G	3.85	1/3	4/9
G24F/A32R/S92K	4.50	2/3	4/9
D25P/N51Q/S89M	3.59	3/3	3/9
S55G/Q96S/V97L	3.17	3/3	4/9
R28N/K50T/N52I	2.40	3/3	2/9
Y31H/S93R/F95N	2.85	3/3	2/9
G49N/N52F/Q96T	4.79	1/3	0/9
S89P/R90H/G94N	3.84	2/3	5/9
A32E/F98N	3.47	1/3	1/9
N52A/P54C/F98I	no signal	0/3	1/9
E23H/G24H/Q96F	3.76	3/3	0/9
Y30W/R53Q/Q96W	no signal	0/3	1/9
D25Q/N51Y/F98C	3.50	2/3	1/9
Y29Q/G94L	5.13	2/3	5/9
N33A/R53K/S93W	4.66	1/3	1/9
S26H/Y30A/S89Y	1.30	3/3	3/9
G24M/S26P/R90W	2.20	3/3	2/9
E23G/R28P/G94L	2.51	3/3	2/9
S26D/R90I/G94D	3.17	1/3	0/9
S88F/S89K/F98T	4.13	1/3	1/9
D25S/S92F/S93D	2.66	3/3	2/9
S26C/F95G/V97W	3.85	2/3	2/9
G94M/Q96A/F98R	3.60	2/3	4/9
D25I/Q96G/F98K	2.88	3/3	5/9
R28T/S55P/S89A	2.27	3/3	4/9
S55M/F95G/F98W	2.77	3/3	1/9
S26K/K50Q/G94I	4.27	3/3	4/9
L27Y/F95Q/Q96C	no signal	0/3	2/9
N52Y/S89V/G94L	3.81	2/3	3/9
G24Q/Q96C	3.89	2/3	3/9
K50N/N52A/D91F	2.50	3/3	6/9
D91R/S92N/G94P	no signal	0/3	3/9
R28V/K50G/P54V	2.62	3/3	4/9
G24N/Y30C/N51K	4.98	1/3	1/9
S26N/Y29T/F98L	3.97	2/3	2/9
A32R/N33R/S89W	3.88	2/3	3/9
L27F/R53M	no signal	0/3	1/9
N51K/N52M/F95M	2.92	3/3	2/9
A32M/G49A/P54K	5.21	1/3	2/9
L27R/N51Q/R90P	no signal	0/3	0/9
S26R/Q96D/F98A	3.00	3/3	2/9
N33L/S88K/S92G	5.43	1/3	1/9
D25K/N51M/F95R	3.45	3/3	3/9
S93C/F95L/V97D	3.86	1/3	2/9
R28V/Y29H/R53S	3.00	3/3	5/9
D25A/Y30E/V97K	1.45	3/3	4/9
L27H/N33A/G49L	3.64	3/3	3/9

Excerpt, the final 8 entries:

changes,"mean, log10 nM",detected,control signals
L27R/N51Q/R90P,no signal,0/3,0/9
S26R/Q96D/F98A,3.00,3/3,2/9
N33L/S88K/S92G,5.43,1/3,1/9
D25K/N51M/F95R,3.45,3/3,3/9
S93C/F95L/V97D,3.86,1/3,2/9
R28V/Y29H/R53S,3.00,3/3,5/9
D25A/Y30E/V97K,1.45,3/3,4/9
L27H/N33A/G49L,3.64,3/3,3/9

Nonspecific signal, from three strains lacking the peptide, appeared in 28% of pairings of library AAYL52, centred on 3.91 (5% of these signals below 2.90); values are not corrected for it. Also given: how often the same scFv was detected with the empty control strains.